Reference: patent publication US5569742A (The Salk Institute for Biological Studies, priority 1994, dated 1996)

Chains of the proteins cited; added tags and fusions are not shown.
UniProt P49146, whole entry: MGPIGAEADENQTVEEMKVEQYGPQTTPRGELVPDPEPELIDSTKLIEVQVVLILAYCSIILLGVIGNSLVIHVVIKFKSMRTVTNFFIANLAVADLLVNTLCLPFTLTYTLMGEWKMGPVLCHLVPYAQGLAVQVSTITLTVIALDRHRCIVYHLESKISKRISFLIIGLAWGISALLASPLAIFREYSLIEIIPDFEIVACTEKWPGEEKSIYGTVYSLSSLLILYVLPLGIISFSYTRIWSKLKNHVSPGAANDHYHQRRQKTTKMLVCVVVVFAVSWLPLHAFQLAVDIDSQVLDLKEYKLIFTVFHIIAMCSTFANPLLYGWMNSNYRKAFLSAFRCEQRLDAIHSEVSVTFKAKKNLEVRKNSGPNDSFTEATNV

Biological target: T1, NPY receptors on SK-N-BE2 cells (Homo sapiens, UniProt P49146)
T1 construct: endogenous in cells; host or cells: SK-N-BE2 human neuroblastoma cells
Test: Saturation binding experiment with [125I]PYY as radioligand on SK-N-BE2 cells
Settings: saturation binding data
Method: Saturation binding experiments are performed for both the SK-N-MC and SK-N-BE2 cell lines using [^125 I]PYY as the radioligand. The Scatchard plot of the [^125 I]PYY saturation binding data obtained for the SK-N-BE2 cells is nearly linear.

## [^125 I]PYY: radioligand, iodinated peptide YY from NEN
  slope of the Hill plot: 1.03
